Three compounds from ChEMBL document CHEMBL4017513, “Structure-Activity Relationships of Potent, Targeted Covalent Inhibitors That Abolish Both the Transamidation and GTP Binding Activities of Human Tissue Transglutaminase” (J Med Chem, 2017) can be followed below.

The species entered for one assay is Cavia porcellus. Kind of assay: Ratio of Kinact to Ki for guinea pig liver TG2.
Assay [1] deals with T1, Protein-glutamine gamma-glutamyltransferase (Homo sapiens) (UniProt P21980).
T1 sequence (whole entry): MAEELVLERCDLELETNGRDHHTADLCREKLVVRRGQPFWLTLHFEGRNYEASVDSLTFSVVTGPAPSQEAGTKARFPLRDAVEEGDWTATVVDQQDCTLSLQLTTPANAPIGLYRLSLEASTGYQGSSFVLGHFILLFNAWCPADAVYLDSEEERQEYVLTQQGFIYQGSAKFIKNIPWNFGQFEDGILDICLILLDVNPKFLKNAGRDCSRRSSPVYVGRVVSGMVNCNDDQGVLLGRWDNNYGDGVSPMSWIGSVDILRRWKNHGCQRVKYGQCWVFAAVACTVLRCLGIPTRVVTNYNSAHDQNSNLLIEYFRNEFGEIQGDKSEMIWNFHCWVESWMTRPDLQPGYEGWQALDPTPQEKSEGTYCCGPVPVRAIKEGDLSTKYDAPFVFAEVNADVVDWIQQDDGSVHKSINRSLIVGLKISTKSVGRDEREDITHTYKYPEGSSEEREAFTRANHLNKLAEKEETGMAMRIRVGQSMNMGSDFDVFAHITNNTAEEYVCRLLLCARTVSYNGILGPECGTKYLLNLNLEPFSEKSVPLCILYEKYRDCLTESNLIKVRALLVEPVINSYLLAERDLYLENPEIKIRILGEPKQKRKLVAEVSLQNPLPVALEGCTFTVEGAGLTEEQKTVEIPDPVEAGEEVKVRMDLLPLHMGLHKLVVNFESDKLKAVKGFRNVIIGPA
As to the kind of experiment: Irreversible inhibition of human TG2 using AL5 as substrate by colorimetric assay.

Assay [2] concerns the target T1, Protein-glutamine gamma-glutamyltransferase (Homo sapiens). Kind of assay: Ratio of kinact to Ki for human TG2 by colorimetric assay.
Assay [3] addresses T2, Protein-glutamine gamma-glutamyltransferase E (Homo sapiens) (UniProt Q08188).
T2 sequence (whole entry): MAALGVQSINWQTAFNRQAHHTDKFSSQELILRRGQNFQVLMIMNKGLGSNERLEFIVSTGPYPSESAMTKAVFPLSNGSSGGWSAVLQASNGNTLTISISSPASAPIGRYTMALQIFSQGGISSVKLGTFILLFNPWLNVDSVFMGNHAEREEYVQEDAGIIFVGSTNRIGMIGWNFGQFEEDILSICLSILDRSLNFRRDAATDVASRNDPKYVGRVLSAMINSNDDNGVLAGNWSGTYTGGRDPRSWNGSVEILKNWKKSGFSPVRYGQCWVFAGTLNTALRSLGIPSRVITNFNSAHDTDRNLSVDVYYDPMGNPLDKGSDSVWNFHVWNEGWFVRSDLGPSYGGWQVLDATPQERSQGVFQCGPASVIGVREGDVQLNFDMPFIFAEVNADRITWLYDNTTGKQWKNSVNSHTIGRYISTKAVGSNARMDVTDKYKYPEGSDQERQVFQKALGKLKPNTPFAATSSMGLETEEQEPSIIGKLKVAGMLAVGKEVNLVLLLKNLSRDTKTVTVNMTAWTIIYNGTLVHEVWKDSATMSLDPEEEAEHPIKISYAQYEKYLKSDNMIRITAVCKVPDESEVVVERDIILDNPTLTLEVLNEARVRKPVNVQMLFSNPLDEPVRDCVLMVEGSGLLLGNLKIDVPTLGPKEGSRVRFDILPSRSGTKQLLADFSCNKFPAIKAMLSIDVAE
Kind of assay: Inactivation of activated human TG3 assessed as rate constant of enzyme inactivation using FRET- quenched A101 as substrate by fluorescence assay.

The species named for a further assay is Homo sapiens. As to the kind of experiment: Selectivity ratio of Kobs for human TG2 to Kobs for activated human TG3.
Assay [4] concerns the target T3, Coagulation factor XIII A chain (Homo sapiens) (UniProt P00488).
T3 sequence (whole entry): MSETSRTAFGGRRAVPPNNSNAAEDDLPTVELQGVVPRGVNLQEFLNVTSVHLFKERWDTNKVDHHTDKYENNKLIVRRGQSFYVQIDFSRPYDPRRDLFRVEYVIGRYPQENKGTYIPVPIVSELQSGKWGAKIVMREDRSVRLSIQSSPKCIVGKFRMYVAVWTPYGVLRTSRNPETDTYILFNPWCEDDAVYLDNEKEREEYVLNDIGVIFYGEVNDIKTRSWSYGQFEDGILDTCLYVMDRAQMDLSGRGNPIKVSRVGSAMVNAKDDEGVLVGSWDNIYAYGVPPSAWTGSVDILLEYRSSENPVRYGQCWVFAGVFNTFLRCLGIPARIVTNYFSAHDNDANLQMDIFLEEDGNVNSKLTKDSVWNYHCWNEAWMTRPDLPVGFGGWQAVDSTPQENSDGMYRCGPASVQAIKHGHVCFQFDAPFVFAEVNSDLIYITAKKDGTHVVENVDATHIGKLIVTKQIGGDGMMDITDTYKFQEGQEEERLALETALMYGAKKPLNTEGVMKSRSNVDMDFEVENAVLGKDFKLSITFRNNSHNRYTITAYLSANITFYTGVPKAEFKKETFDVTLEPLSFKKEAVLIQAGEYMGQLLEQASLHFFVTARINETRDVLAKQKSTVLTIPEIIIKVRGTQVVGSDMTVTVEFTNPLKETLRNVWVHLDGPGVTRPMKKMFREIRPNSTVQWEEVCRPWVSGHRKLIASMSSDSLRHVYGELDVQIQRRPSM
As to the kind of experiment: Inactivation of human F13a assessed as rate constant of enzyme inhibition using FRET- quenched A101 as substrate by fluorescence assay.

Assay [5] has as its target T4, Protein-glutamine gamma-glutamyltransferase K (Homo sapiens) (UniProt P22735).
T4 sequence (whole entry): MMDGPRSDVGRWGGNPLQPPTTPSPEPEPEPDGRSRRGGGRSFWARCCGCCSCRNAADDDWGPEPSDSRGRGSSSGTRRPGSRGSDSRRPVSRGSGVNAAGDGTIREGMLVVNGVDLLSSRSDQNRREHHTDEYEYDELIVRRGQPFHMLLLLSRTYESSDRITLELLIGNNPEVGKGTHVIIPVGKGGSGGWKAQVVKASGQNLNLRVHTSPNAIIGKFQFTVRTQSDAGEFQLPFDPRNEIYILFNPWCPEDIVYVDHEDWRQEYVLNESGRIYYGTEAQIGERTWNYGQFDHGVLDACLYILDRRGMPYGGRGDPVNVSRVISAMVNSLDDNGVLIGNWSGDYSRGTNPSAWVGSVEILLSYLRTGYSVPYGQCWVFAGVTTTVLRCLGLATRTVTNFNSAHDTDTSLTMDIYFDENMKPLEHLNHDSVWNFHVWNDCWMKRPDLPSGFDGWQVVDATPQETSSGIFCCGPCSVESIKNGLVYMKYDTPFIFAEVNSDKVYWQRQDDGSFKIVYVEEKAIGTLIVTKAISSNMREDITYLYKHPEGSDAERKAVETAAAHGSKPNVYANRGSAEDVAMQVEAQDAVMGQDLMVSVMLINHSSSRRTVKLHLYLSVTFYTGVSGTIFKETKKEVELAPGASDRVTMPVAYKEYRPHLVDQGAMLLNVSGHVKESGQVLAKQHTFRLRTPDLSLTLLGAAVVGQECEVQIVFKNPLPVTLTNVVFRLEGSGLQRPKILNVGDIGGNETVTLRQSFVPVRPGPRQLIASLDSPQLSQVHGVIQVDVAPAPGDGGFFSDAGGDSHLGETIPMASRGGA
Kind of assay: Inactivation of human TG1 using AL5 as substrate by colorimetric assay.

`C=CC(=O)NCCCC[C@H](NC(=O)OCc1ccccc1)C(=O)O`: the figures for the Ratio (in the assay filed under Cavia porcellus; in assay [2]) were 1.3 ×10⁶ /M/min and 13.2 ×10³ /M/min, respectively. In addition, the Kinact in assay [1] turned out to be 0.796 min⁻¹.
`C=CC(=O)NCCCC[C@H](NC(=O)OCc1ccccc1)C(=O)N1CCN(C(=O)c2cccc3ccccc23)CC1` yielded a Kinact in assay [1] of 0.9 min⁻¹. Besides, the Ratio in assay [2] was found to be 101 ×10³ /M/min.
`C=CC(=O)NCCCC[C@H](NC(=O)OCc1ccccc1)C(=O)N1CCN(S(=O)(=O)c2cccc3c(N(C)C)cccc23)CC1`: the K in assay [3] came out at 0.65 ×10⁻³ /min; in assay [4], 4.08 ×10⁻³ /min; in assay [5] it was 8.27 ×10⁻³ /min. In the assay listed under Homo sapiens, the Selectivity ratio is 390. This compound also registered a Kinact in assay [1] of 1.4 min⁻¹. Besides, the Ratio in assay [2] was found to be 107 ×10³ /M/min.
